Experimental data reported in EP2041131B1, “AZAINDOLE DERIVATIVES WITH A COMBINATION OF PARTIAL NICOTINIC ACETYLCHOLINE RECEPTOR AGONISM AND DOPAMINE REUPTAKE INHIBITION” (Abbott Healthcare Products B.V., priority 2006, dated 2008).

Tested on: rat striatal slices
Experiment: In vitro [^3H]-Dopamine release
Format: cell-based
Conditions: K+ (10 mM) evoked release, compounds added at 10^-8 M and 10^-6 M, table does not say which concentration

Structure (SMILES): c1cnc2[nH]cc(C[C@@H]3CCCN3)c2c1 (stereo in doubt) [Compound 97, reference compound]
- Functional activity release [^3H]-Dopamine % of control: 122 % of control
